Paper doi:10.1101/2023.11.15.567208 (bioRxiv, 2024)

Chains of the proteins cited; added tags and fusions are not shown. Residues count along the entry.
UniProt Q9R1W5, 23-463: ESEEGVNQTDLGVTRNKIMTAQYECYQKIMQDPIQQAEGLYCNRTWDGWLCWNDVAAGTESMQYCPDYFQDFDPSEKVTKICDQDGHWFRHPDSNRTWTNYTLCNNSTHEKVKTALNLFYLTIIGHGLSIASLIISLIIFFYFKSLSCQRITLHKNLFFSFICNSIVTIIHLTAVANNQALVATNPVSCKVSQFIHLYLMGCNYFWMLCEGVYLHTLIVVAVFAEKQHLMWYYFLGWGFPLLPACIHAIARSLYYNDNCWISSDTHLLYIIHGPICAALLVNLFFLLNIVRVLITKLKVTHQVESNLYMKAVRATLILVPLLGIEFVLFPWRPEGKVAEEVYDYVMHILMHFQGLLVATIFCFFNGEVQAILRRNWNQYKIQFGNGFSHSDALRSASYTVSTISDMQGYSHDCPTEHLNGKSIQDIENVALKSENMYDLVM
UniProt Q9WTJ5, 27-148: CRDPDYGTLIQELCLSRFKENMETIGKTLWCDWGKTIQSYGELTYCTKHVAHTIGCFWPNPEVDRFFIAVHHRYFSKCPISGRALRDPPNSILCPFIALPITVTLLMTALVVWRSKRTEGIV

What was measured:
[1] = target: T1, CGRP receptor (Calcrl and Ramp1) (Mus musculus, UniProt Q9R1W5+Q9WTJ5); assay: Co-culture of DRG neurons with CGRP-sniffer cells, capsaicin-evoked CGRPα release; assay type: cell-based; details: exogenous CGRPα saturating concentration (100–1000 nM); co-culture with WT or DKO DRG
T1 construct: expressed in transfected cells; host or cells: HEK293; Calcrl/Gα15/GCaMP6s by PiggyBac transposase (puromycin), Ramp1 by pSBbi-Neo-cmv-TETo2-RAMP1 IRES-mTagBFP2-NLS (geneticin); doxycycline-induced
From the text: Figure 1. […] (A) Confocal images showing Substance P immunostaining in the dorsal root ganglion (DRG), spinal cord dorsal horn and midbrain of a WT mouse (top). No staining is detectable in the DKO (bottom). (B) Confocal images showing CGRP immunostaining in the DRG, spinal cord dorsal horn, and amygdala of a WT mouse (top). The DKO mice show no obvious staining (bottom). Images in both (A) and (B) are representative of staining performed on tissue from 1M and 1F animal per genotype. (C) Schematic showing co-culture of Tac1-RFP-labelled DRG neurons and Substance P-sniffer HEK293 cells expressing NKR1, GCaMP6s and Gαo. […] (D) Fluorescence images showing Tac1-RFP-labelled DRG neurons (magenta) and Substance P-sniffer cells (green). […] For (E), means were compared using repeated measures 2-way ANOVA, followed by post-hoc Sidak’s test. Error bars denote standard error of the mean. (F) Schematic showing co-culture of Tac1-RFP-labelled DRG neurons and Substance P-sniffer HEK293 cells expressing Calcrl, Ramp1, GCaMP6s and Gαo. […] (G) Fluorescence images showing Tac1-RFP-labelled DRG neurons (magenta) and Substance P-sniffer cells (green). […]
Imaging was performed in Ringer’s solution: 125 mM NaCl, 3 mM KCl, 5 mM CaCl2, 1 mM MgCl2, 10 mM glucose, and 10 mM HEPES (all from Sigma-Aldrich), adjusted to pH 7.3 with 1 M NaOH, and osmolality measured ~280 mmol/kg. […]

[2] = ref von Euler and Gaddum, 1931 (Substance P); Amara et al., 1982 (CGRPα); cited from earlier work
From the text: Among the most challenging diseases to treat is chronic pain. With over 20% of the population suffering from chronic pain, we urgently need to find new analgesic targets ([Nahin et al., 2023]).

CC(C)C[C@H](NC(=O)CNC(=O)[C@H](C)NC(=O)[C@H](CC(C)C)NC(=O)[C@H](CCCNC(=N)N)NC(=O)[C@H](Cc1c[nH]cn1)NC(=O)[C@@H](NC(=O)[C@@H](NC(=O)[C@@H]1CSSC[C@H](NC(=O)[C@@H](N)CO)C(=O)N[C@@H](CC(N)=O)C(=O)N[C@@H]([C@@H](C)O)C(=O)N[C@@H](C)C(=O)N[C@@H]([C@@H](C)O)C(=O)N1)C(C)C)[C@@H](C)O)C(=O)N[C@@H](CC(C)C)C(=O)N[C@@H](CO)C(=O)N[C@@H](CCCNC(=N)N)C(=O)N[C@@H](CO)C(=O)NCC(=O)NCC(=O)N[C@H](C(=O)N[C@H](C(=O)N[C@@H](CCCCN)C(=O)N[C@@H](CC(=O)O)C(=O)N[C@@H](CC(N)=O)C(=O)N[C@@H](Cc1ccccc1)C(=O)N[C@H](C(=O)N1CCC[C@H]1C(=O)N[C@H](C(=O)N[C@@H](CC(N)=O)C(=O)N[C@H](C(=O)NCC(=O)N[C@@H](CO)C(=O)N[C@@H](CCC(=O)O)C(=O)N[C@@H](C)C(=O)N[C@@H](Cc1ccccc1)C(N)=O)C(C)C)[C@@H](C)O)C(C)C)C(C)C)C(C)C [CGRPα]
CGRP-sniffer activation by exogenous peptide [1]: activates CGRP-sniffers in both conditions
Contractile or vasodilator activity [2]: potent vasodilator
